Values of other authors, collected in patent publication US20240108592A1, “COMBINATION THERAPY WITH IMMUNOTHERAPEUTIC AGENT FOR CANCER” (Gongwin Biopharm Co., Ltd, priority 2022, published 2024).

Sequences of proteins named here, by UniProt entry; tags and fusion partners are left off. A change or cut given only in a name is not applied to a line headed by its entry. Residues count along the entry.
UniProt O43570, 25-354: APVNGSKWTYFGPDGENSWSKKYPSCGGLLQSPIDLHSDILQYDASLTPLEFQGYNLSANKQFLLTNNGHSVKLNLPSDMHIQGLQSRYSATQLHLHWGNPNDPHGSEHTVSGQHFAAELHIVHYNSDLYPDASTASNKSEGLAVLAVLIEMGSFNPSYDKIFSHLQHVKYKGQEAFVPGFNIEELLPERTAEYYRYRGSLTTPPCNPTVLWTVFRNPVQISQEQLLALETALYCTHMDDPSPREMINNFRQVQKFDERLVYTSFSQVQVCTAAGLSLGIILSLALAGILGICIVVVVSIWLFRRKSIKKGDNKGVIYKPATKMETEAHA
UniProt P43166: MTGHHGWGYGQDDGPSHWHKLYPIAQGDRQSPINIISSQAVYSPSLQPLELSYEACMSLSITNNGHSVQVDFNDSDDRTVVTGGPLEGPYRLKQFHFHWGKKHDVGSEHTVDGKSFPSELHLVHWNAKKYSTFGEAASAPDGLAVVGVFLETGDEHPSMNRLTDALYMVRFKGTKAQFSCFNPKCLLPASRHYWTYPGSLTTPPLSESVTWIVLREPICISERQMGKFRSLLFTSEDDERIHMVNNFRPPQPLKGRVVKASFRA

Legend:
Settings in all cases: background statement, no data
CA12 = CA12 (Homo sapiens, UniProt O43570)
CA9 = CA9 (Homo sapiens, UniProt Q16790)
CA7 = CA7 (Homo sapiens, UniProt P43166)

Cc1ccc(S(N)(=O)=O)cc1 [PTS, para-toluene sulfonamide]
strong inhibitory effect: inhibitory effect on CA12 (CA12) | inhibitory effect on CA9 (CA9) | inhibitory effect on CA7 (CA7)
